Laboratory results: article PMC9635817 (Frontiers in Nutrition, 2022)
pIC50: −log10 of the molar value. Read-outs that look alike come from different tables or passages of the source.

Chains of the proteins cited; added tags and fusions are not shown. Residues count along the entry.
UniProt O42275, 24-633 limits assumed: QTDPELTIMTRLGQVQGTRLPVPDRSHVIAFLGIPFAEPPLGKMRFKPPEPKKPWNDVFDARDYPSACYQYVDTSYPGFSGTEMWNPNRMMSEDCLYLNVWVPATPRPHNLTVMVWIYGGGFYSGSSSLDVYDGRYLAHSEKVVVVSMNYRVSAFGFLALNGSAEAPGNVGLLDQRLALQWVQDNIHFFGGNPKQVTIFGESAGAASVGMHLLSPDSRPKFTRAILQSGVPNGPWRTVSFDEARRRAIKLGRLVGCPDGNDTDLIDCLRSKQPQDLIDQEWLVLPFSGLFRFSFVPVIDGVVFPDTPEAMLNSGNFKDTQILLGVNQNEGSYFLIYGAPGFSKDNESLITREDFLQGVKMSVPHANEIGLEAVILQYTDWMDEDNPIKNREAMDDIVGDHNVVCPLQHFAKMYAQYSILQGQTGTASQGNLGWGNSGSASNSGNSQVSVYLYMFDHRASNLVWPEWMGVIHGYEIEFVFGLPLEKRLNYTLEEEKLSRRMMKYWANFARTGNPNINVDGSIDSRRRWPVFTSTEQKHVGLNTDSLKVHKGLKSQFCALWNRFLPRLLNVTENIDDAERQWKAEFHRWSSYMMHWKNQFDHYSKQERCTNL

Experiments:
AChE from electric eel = AChE from electric eel (Electrophorus electricus, UniProt O42275); assay: Ellman assay, in vitro inhibition of acetylcholinesterase; details: for pIC50: read-out: IC50 (μg/mL), Ellman assay, ATCI 2.5 mM, 0.1 M phosphate buffer pH 7.4, 37 °C, mean ± SD, n = 3; for IC50: same IC50 expressed in μM
AChE [1] = target: AChE (Electrophorus electricus, UniProt O42275); assay: Kinetics of AChE inhibition (Lineweaver-Burk); details: read-out: Ki (mM), enzyme-inhibitor dissociation constant; x-axis intercept of slope of Lineweaver-Burk line versus peptide concentration
AChE [2] = details: cited from earlier work

| Compound | pIC50 (AChE from electric eel) | IC50 (AChE from electric eel) [µM] | Ki (AChE [1]) [mM] | cholinesterase inhibition IC50 (AChE [2]) [µg/mL] | AChE-inhibitory IC50 (AChE [2]) [µg/mL] |
| --- | --- | --- | --- | --- | --- |
| CC(C)C[C@H](NC(=O)[C@H](C)NC(=O)[C@H](CC(N)=O)NC(=O)[C@H](Cc1c[nH]cn1)NC(=O)[C@@H](N)CCC(N)=O)C(=O)O | 5.56 | 3.29 | – | – | – |
| NC(=O)CC[C@H](NC(=O)[C@H](CO)NC(=O)[C@@H](N)CCC(N)=O)C(=O)N[C@@H](CO)C(=O)O | 5.45 | 4.25 | 0.43 | – | – |
| N=C(N)NCCC[C@H](NC(=O)[C@H](CCC(=O)O)NC(=O)[C@H](CCCCN)NC(=O)[C@H](CCCCN)NC(=O)[C@@H](N)CC(=O)O)C(=O)NCC(=O)O | 5.68 | 2.47 | – | – | – |
| NC(=O)CC[C@H](NC(=O)[C@H](CO)NC(=O)[C@H](CCC(N)=O)NC(=O)[C@@H](N)CO)C(=O)O | 5.45 | – | – | – | – |
| C[C@H](NC(=O)[C@H](Cc1ccccc1)NC(=O)[C@H](Cc1c[nH]cn1)NC(=O)[C@H](CO)NC(=O)[C@@H](N)CCC(N)=O)C(=O)N[C@@H](CC(=O)O)C(=O)O | 5.64 | 2.71 | – | – | – |
| CC(C)C[C@H](N)C(=O)N[C@@H](CCCCN)C(=O)N[C@@H](CO)C(=O)N[C@@H](CC(N)=O)C(=O)N[C@@H](CC(=O)O)C(=O)N[C@@H](CCCNC(=N)N)C(=O)O | 5.66 | 2.58 | – | – | – |
| C[C@@H](O)[C@H](NC(=O)[C@@H](N)CCC(=O)O)C(=O)N[C@@H](CCCNC(=N)N)C(=O)N[C@@H](CO)C(=O)N[C@@H](CCC(N)=O)C(=O)O | 5.60 | 2.96 | 0.06 | – | – |
| CSCC[C@H](NC(=O)[C@H](CC(C)C)NC(=O)[C@@H]1CCCN1)C(=O)N[C@@H](CC(C)C)C(=O)N[C@@H](CC(C)C)C(=O)N[C@@H](C)C(=O)O | 5.61 | 2.94 | – | – | – |
| CC[C@H](C)[C@H](NC(=O)[C@H](C)NC(=O)[C@@H](NC(=O)[C@@H]1CCCN1C(=O)[C@@H](N)Cc1c[nH]cn1)C(C)C)C(=O)N[C@@H](CC(N)=O)C(=O)N[C@@H](C)C(=O)O | 5.64 | 2.77 | – | – | – |
| CC(C)[C@H](N)C(=O)N[C@@H](CC(N)=O)C(=O)N[C@@H](CCCNC(=N)N)C(=O)N[C@@H](Cc1ccccc1)C(=O)N[C@@H](CCCNC(=N)N)C(=O)O | 5.63 | 2.69 | – | – | – |
| CC(C)[C@H](NC(=O)[C@@H](N)CCC(N)=O)C(=O)N[C@@H](Cc1ccccc1)C(=O)N[C@@H](CCCNC(=N)N)C(=O)N[C@@H](C)C(=O)N[C@H](C(=O)O)[C@@H](C)O | 5.65 | 2.64 | – | – | – |
| CC(C)C[C@H](N)C(=O)N[C@@H](CCC(N)=O)C(=O)N[C@@H](Cc1c[nH]cn1)C(=O)N[C@@H](CC(N)=O)C(=O)N[C@@H](C)C(=O)O | 5.58 | 3.1 | 0.16 | – | – |
| N=C(N)NCCC[C@H](NC(=O)[C@H](CCC(=O)O)NC(=O)[C@H](CC(=O)O)NC(=O)[C@H](CCC(N)=O)NC(=O)[C@@H]1CCCN1)C(=O)O | 5.62 | 2.78 | 0.08 | – | – |
| CC(C)[C@H](N)C(=O)N[C@@H](CC(N)=O)C(=O)N[C@@H](CCCNC(=N)N)C(=O)N1CCC[C@H]1C(=O)NCC(=O)N[C@@H](CCCCN)C(=O)O | 5.62 | 2.87 | – | – | – |
| N=C(N)NCCC[C@H](N)C(=O)N[C@@H](CO)C(=O)N[C@@H](CCC(N)=O)C(=O)N[C@@H](CO)C(=O)N[C@@H](CCC(N)=O)C(=O)O | 5.59 | 3.05 | – | – | – |
| C[C@@H]1O[C@@H](OC[C@H]2O[C@@H](Oc3c(-c4ccc(O)c(O)c4)oc4cc(O)cc(O)c4c3=O)[C@H](O)[C@@H](O)[C@@H]2O)[C@H](O)[C@H](O)[C@H]1O | – | – | – | 12.00 | – |
| NCCCC[C@H](NC(=O)[C@H](CCC(N)=O)NC(=O)[C@H](CC(N)=O)NC(=O)[C@@H](N)CCCCN)C(=O)N[C@@H](CCC(N)=O)C(=O)N[C@@H](CO)C(=O)O | 5.71 | 2.3 | – | – | – |
| C[C@@H](O)[C@H](N)C(=O)N[C@@H](CCCNC(=N)N)C(=O)N[C@@H](CO)C(=O)N[C@@H](CCC(N)=O)C(=O)N[C@@H](CCC(=O)O)C(=O)O | 5.59 | 3 | – | – | – |
| Snakin-Z | – | – | – | – | 580 |
| O=c1cc(-c2ccc(O)cc2)oc2cc(O)cc(O)c12 | – | – | – | 3.12 | – |
| CC(C)[C@H](NC(=O)[C@@H](N)CCCCN)C(=O)N[C@@H](CO)C(=O)N[C@@H](CCCNC(=N)N)C(=O)N[C@@H](CC(=O)O)C(=O)N[C@@H](CCC(N)=O)C(=O)O | 5.72 | 2.22 | – | – | – |
